Data on 27 compounds can be found in US11691963B2, “6-heteroaryloxy benzimidazoles and azabenzimidazoles as JAK2 inhibitors” (Ajax Therapeutics, Inc., priority 2020, dated 2023).

By UniProt entry, the sequences of proteins in these tests, tags left out. Residues count along the entry.
UniProt O60674, 849-1124 Y1007F/Y1008F: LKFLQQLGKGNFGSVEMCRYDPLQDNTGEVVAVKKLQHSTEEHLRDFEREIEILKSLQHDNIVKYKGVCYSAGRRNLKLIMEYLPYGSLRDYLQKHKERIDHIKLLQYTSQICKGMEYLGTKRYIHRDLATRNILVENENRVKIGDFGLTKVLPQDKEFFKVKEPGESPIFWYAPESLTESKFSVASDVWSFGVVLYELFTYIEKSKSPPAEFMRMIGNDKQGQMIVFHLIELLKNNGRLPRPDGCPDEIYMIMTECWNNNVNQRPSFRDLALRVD

In general, Kd refers to the concentration at which binding is half-saturated.

This assay concerns the target JAK2 (JH1domain-catalytic, Y1007F,Y1008F) kinase (Homo sapiens (Human), UniProt O60674, Y1007F/Y1008F). Particulars: read-out: JAK2 Kd.
[1] abbreviates: JAK2 JH1 domain-catalytic, Y1007F,Y1008F, qPCR readout.

Read-outs that look alike come from different tables or passages of the source.

`CC(=O)Nc1cc(Oc2cnc3nc(Nc4cc(C5CC5)cn(C)c4=O)n(C)c3c2Cl)ccn1` [Example I-202, N-(4-((7-chloro-2-((5-cyclopropyl-1-methyl-2-oxo-1,2-dihydropyridin-3-yl)amino)-1-methyl-1H-imidazo[4,5-b]pyridin-6-yl)oxy)pyridin-2-yl)acetamide]: under setting [1], the Kd is below 10 nM. As to `CC(=O)Nc1cc(Oc2cnc3nc(Nc4cc(C(C)(C)C)n(C5CCN(CC(F)F)CC5)n4)n(C)c3c2)ccn1` [Example I-114, N-(4-((2-((5-(tert-butyl)-1-(1-(2,2-difluoroethyl)piperidin-4-yl)-1H-pyrazol-3-yl)amino)-1-methyl-1H-imidazo[4,5-b]pyridin-6-yl)oxy)pyridin-2-yl)acetamide], the Kd is below 10 nM.

As for `CC(=O)Nc1cc(Oc2ccc3nc(Nc4cc(C5CC5)cn(CC5(CO)CC5)c4=O)n(C)c3c2)ccn1` [Example I-70, N-(4-((2-((5-cyclopropyl-1-((1-(hydroxymethyl)cyclopropyl)methyl)-2-oxo-1,2-dihydropyridin-3-yl)amino)-1-methyl-1H-benzo[d]imidazol-6-yl)oxy)pyridin-2-yl)acetamide], under setting [1], the Kd was below 10 nM. Same read-out and setting: the result for `CC(=O)Nc1cc(Oc2cnc3nc(Nc4cc(C(F)(F)C(F)(F)F)n([C@H]5CCOC5)n4)n(C)c3c2C)ccn1` [Example I-127, (S)—N-(4-((1,7-dimethyl-2-((5-(perfluoroethyl)-1-(tetrahydrofuran-3-yl)-1H-pyrazol-3-yl)amino)-1H-imidazo[4,5-b]pyridin-6-yl)oxy)pyridin-2-yl)acetamide] reads below 10 nM; that for `CC(=O)Nc1cc(Oc2ccc3nc(Nc4cc(C(C)(C)C)n([C@@H]5CCOC5)n4)n(C)c3c2C#N)ccn1` [Example I-25, (R)—N-(4-((2-((5-(tert-butyl)-1-(tetrahydrofuran-3-yl)-1H-pyrazol-3-yl)amino)-7-cyano-1-methyl-1H-benzo[d]imidazol-6-yl)oxy)pyridin-2-yl)acetamide], below 10 nM. `CC(=O)Nc1cc(Oc2ccc3nc(Nc4cc(C5CC5)cn(C[C@H]5CCC[C@@H]5O)c4=O)n(C)c3c2)ccn1` (single isomer, unassigned) [Example I-75-b]: the Kd is below 10 nM. `CO[C@H]1C[C@H](n2nc(Nc3nc4ncc(Oc5ccnc(NC(C)=O)c5)c(Cl)c4n3C)cc2C(F)(F)C(F)(F)F)C1` [Example I-150, trans-N-(4-((7-chloro-2-((1-(3-methoxycyclobutyl)-5-(perfluoroethyl)-1H-pyrazol-3-yl)amino)-1-methyl-1H-imidazo[4,5-b]pyridin-6-yl)oxy)pyridin-2-yl)acetamide]: the Kd under setting [1] was below 10 nM. Take `CC(=O)Nc1cc(Oc2cnc3nc(Nc4nn([C@H]5CCOC5)c(C(C)(C)C)c4F)n(C)c3c2)ccn1` [Example I-139, (S)—N-(4-((2-((5-(tert-butyl)-4-fluoro-1-(tetrahydrofuran-3-yl)-1H-pyrazol-3-yl)amino)-1-methyl-1H-imidazo[4,5-b]pyridin-6-yl)oxy)pyridin-2-yl)acetamide]: the Kd under setting [1] was below 10 nM. On the same count and under the same terms, for `COc1c(Oc2ccnc(NC(=O)C3CC3)c2)cnc2nc(Nc3cc(C(F)(F)C(F)(F)F)n([C@@H]4CCOC4)n3)n(C)c12` [Example I-177, (R)—N-(4-((7-methoxy-1-methyl-2-((5-(perfluoroethyl)-1-(tetrahydrofuran-3-yl)-1H-pyrazol-3-yl)amino)-1H-imidazo[4,5-b]pyridin-6-yl)oxy)pyridin-2-yl)cyclopropanecarboxamide] the value was below 10 nM; for `CC(=O)Nc1cc(Oc2ccc3nc(Nc4cc(C5CC5)nn(C(C)C)c4=O)n(C)c3c2)ccn1` [Example I-85, N-(4-((2-((6-cyclopropyl-2-isopropyl-3-oxo-2,3-dihydropyridazin-4-yl)amino)-1-methyl-1H-benzo[d]imidazol-6-yl)oxy)pyridin-2-yl)acetamide], below 10 nM.

As to `C[C@@H](CO)Cn1nc(Nc2nc3ncc(Oc4ccnc(NC(=O)C5CC5)c4)cc3n2C)cc1C(C)(C)C` [Example I-163-b, (R)—N-(4-((2-((5-(tert-butyl)-1-(3-hydroxy-2-methylpropyl)-1H-pyrazol-3-yl)amino)-1-methyl-1H-imidazo[4,5-b]pyridin-6-yl)oxy)pyridin-2-yl)cyclopropanecarboxamide], the Kd under setting [1] is below 10 nM. Regarding `CC(=O)Nc1cc(Oc2cnc3nc(Nc4nc([C@@H]5CCOC5)c(C(C)(C)C)s4)n(C)c3c2)ccn1` (single isomer, unassigned) [Example I-187-a], under setting [1], the Kd is below 10 nM. Same read-out and setting: the result for `CCN1CCN(Cc2ccc(Nc3nc4ncc(Oc5ccnc(NC(C)=O)c5)c(Cl)c4n3C)cc2C(F)(F)F)CC1` [Example I-203, N-(4-((7-chloro-2-((4-((4-ethylpiperazin-1-yl)methyl)-3-(trifluoromethyl)phenyl)amino)-1-methyl-1H-imidazo[4,5-b]pyridin-6-yl)oxy)pyridin-2-yl)acetamide] reads below 10 nM; that for `COc1c(Oc2ccnc(NC(C)=O)c2)cnc2nc(Nc3cc(C(C)(C)C)n([C@@H]4CCOC45CC5)n3)n(C)c12` (single isomer, unassigned) [Example I-190-a], below 10 nM. On to `CC(=O)Nc1cc(Oc2ccc3nc(Nc4cc(C(C)(C)C)n([C@H]5C[C@H](O)C5)n4)n(C)c3c2)ccn1` [Example I-29, N-(4-((2-((5-(tert-butyl)-1-((1r,3r)-3-hydroxycyclobutyl)-1H-pyrazol-3-yl)amino)-1-methyl-1H-benzo[d]imidazol-6-yl)oxy)pyridin-2-yl)acetamide], for which the Kd was below 10 nM. Still for that read-out and setting: the result for `CC(=O)Nc1cc(Oc2cnc3nc(Nc4cc(C(C)(C)C)n(CC#N)n4)n(C)c3c2C)ccn1` [Example I-131, N-(4-((2-((5-(tert-butyl)-1-(cyanomethyl)-1H-pyrazol-3-yl)amino)-1,7-dimethyl-1H-imidazo[4,5-b]pyridin-6-yl)oxy)pyridin-2-yl)acetamide] reads below 10 nM. For `CC(=O)Nc1cc(Oc2ccc3nc(Nc4cc(C(C)(C)C)n([C@@H]5CCOC5)n4)n(C)c3n2)ccn1` [Example I-26, (R)—N-(4-((2-((5-(tert-butyl)-1-(tetrahydrofuran-3-yl)-1H-pyrazol-3-yl)amino)-3-methyl-3H-imidazo[4,5-b]pyridin-5-yl)oxy)pyridin-2-yl)acetamide], under setting [1], the Kd is below 10 nM.

`CC(=O)Nc1cc(Oc2ccc3nc(Nc4cc(-n5cccn5)cn(C(C)C)c4=O)n(C)c3c2)ccn1` [Example I-80, N-(4-((2-((1-isopropyl-2-oxo-5-(1H-pyrazol-1-yl)-1,2-dihydropyridin-3-yl)amino)-1-methyl-1H-benzo[d]imidazol-6-yl)oxy)pyridin-2-yl)acetamide]: the Kd under setting [1] was below 10 nM.

Regarding `CC(=O)Nc1cc(Oc2ccc3nc(N[C@H]4CCc5nc(C)c(C(F)(F)F)n5C4)n(C)c3c2)ccn1` (single isomer, unassigned) [Example I-45-b], the Kd under setting [1] was above 5000 nM. On the same count and under the same terms, for `CC(=O)Nc1cc(Oc2cnc3nc(Nc4cc(C(F)(F)C(F)(F)F)n([C@@H]5CCOC5)n4)n(C)c3c2Cl)ccn1` [Example I-145, (R)—N-(4-((7-chloro-1-methyl-2-((5-(perfluoroethyl)-1-(tetrahydrofuran-3-yl)-1H-pyrazol-3-yl)amino)-1H-imidazo[4,5-b]pyridin-6-yl)oxy)pyridin-2-yl)acetamide] the value was below 10 nM.

On to `Cn1c(Nc2cc(C(C)(C)C)n(C3CC4(COC4)C3)n2)nc2ncc(Oc3ccnc(NC(=O)C4CC4)c3)cc21` [Example I-164, N-(4-((2-((5-(tert-butyl)-1-(2-oxaspiro[3.3]heptan-6-yl)-1H-pyrazol-3-yl)amino)-1-methyl-1H-imidazo[4,5-b]pyridin-6-yl)oxy)pyridin-2-yl)cyclopropanecarboxamide], for which the Kd under setting [1] was below 10 nM. For `CC(=O)Nc1cc(Oc2cnc3nc(Nc4cc(C(F)(F)C(F)(F)F)n([C@@H]5CCOC5)n4)n(C)c3c2C)ccn1` [Example I-126, (R)—N-(4-((1,7-dimethyl-2-((5-(perfluoroethyl)-1-(tetrahydrofuran-3-yl)-1H-pyrazol-3-yl)amino)-1H-imidazo[4,5-b]pyridin-6-yl)oxy)pyridin-2-yl)acetamide], the Kd is below 10 nM. For `Cn1c(Nc2cc(C(F)(F)C(F)(F)F)n([C@H]3CCOC3)n2)nc2ncc(Oc3ccnc(NC(=O)C4CC4)c3)cc21` [Example I-134, (S)—N-(4-((1-methyl-2-((5-(perfluoroethyl)-1-(tetrahydrofuran-3-yl)-1H-pyrazol-3-yl)amino)-1H-imidazo[4,5-b]pyridin-6-yl)oxy)pyridin-2-yl)cyclopropanecarboxamide], the Kd under setting [1] was below 10 nM. Same read-out and setting: for `COC1CN(C(=O)Nc2cc(Oc3cnc4nc(Nc5cc(C(C)(C)C)n([C@H]6CCOC6)n5)n(C)c4c3)ccn2)C1` [Example I-166, (S)—N-(4-((2-((5-(tert-butyl)-1-(tetrahydrofuran-3-yl)-1H-pyrazol-3-yl)amino)-1-methyl-1H-imidazo[4,5-b]pyridin-6-yl)oxy)pyridin-2-yl)-3-methoxyazetidine-1-carboxamide] the value was below 10 nM; for `C[C@H](CO)Cn1nc(Nc2nc3ncc(Oc4ccnc(NC(=O)C5CC5)c4)cc3n2C)cc1C(C)(C)C` [Example I-163-a, (S)—N-(4-((2-((5-(tert-butyl)-1-(3-hydroxy-2-methylpropyl)-1H-pyrazol-3-yl)amino)-1-methyl-1H-imidazo[4,5-b]pyridin-6-yl)oxy)pyridin-2-yl)cyclopropane-carboxamide], below 10 nM; for `Cn1cc(C2CC2)cc(Nc2nc3ncc(Oc4ccnc(NC(=O)C5CC5)c4)c(C(F)F)c3n2C)c1=O` [Example I-199, N-(4-((2-((5-cyclopropyl-1-methyl-2-oxo-1,2-dihydropyridin-3-yl)amino)-7-(difluoromethyl)-1-methyl-1H-imidazo[4,5-b]pyridin-6-yl)oxy)pyridin-2-yl)cyclopropanecarboxamide], below 10 nM.

Turning to `CC(=O)Nc1cc(Oc2ccc3nc(Nc4cc(C5CC5)cn(C[C@@H]5CCOC5)c4=O)n(C)c3c2)ccn1` (single isomer, unassigned) [Example I-66-b], the Kd under setting [1] was below 10 nM.
